Assay: Cytotoxicity study, CellTitre-Blue viability assay
Details: cat

Q: With O=c1c(O)c(-c2ccc(O)c(O)c2)oc2cc(O)c(O)c(O)c12 [Quercetagetin, quercetagetin] as the molecule, how does the CC50 at 48 h read?
A: > 100 µM

— PMC6116245 (Viruses, 2018)
